Test results from PubChem BioAssay AID2563 (Broad Institute, 2010).
Only a part is listed here, and it is no random draw. Activity calls are given as the source filed them.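 Rule for the calls: active = fall in fluorescence gain of 50% or more versus controls, with final raw signal at or below 3038400; inconclusive = same 50% fall but final raw signal above 3038400; inactive = fall in fluorescence gain under 50%.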

Sequences of proteins named here, by UniProt entry; tags and fusion partners are left off.
UniProt Q03530, whole entry: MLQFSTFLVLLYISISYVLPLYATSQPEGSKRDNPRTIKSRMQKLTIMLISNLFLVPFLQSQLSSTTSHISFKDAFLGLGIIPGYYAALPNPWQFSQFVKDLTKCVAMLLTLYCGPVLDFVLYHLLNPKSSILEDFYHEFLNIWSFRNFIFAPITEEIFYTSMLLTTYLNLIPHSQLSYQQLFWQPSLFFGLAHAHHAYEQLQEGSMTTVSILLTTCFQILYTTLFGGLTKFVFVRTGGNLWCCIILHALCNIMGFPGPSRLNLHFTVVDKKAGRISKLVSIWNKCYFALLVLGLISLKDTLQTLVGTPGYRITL

Biological target: CAAX prenyl protease 2 (Saccharomyces cerevisiae (strain ATCC 204508 / S288c)) (UniProt Q03530)
Test: yeast Rce1p protease inhibitors, primary screen, biochemical, fluorescence, cell-free homogeneous (AID 2563)
Conditions: yeast membranes, quenched prenylated peptide cleavage fluorescence

Row | SMILES | outcome
1 | O=C(NCC1(N2CCCCC2)CCCCC1)c1cccc([N+](=O)[O-])c1 | inactive
2 | N#CC1(Nc2ccccc2)CCN(CCc2ccccc2)CC1 | inactive
3 | CCN1CCC(Nc2ccc(Cl)cc2)CC1 | inactive
4 | O=C(NCC1(N2CCCCC2)CCCCC1)c1ccc(OC(F)F)cc1 | inactive
5 | CN1CCN(CCOC(=O)C(O)(c2ccccc2)c2ccccc2)CC1 | inactive
6 | COc1ccc(NC2CCN(C(=O)OC(C)(C)C)CC2)cc1 | inactive
7 | COc1cc(C(=O)NCC2(N3CCCCC3)CCCCC2)ccc1OC(F)F | inactive
8 | O=C(NCC1(N2CCOCC2)CCCCC1)c1cc(=O)[nH]c2ccccc12 | inactive
9 | O=C(NCC1(N2CCCCC2)CCCCC1)c1cccc(C(F)(F)F)c1 | inactive
10 | COc1cc(OC)c(C(=O)NCC2(N(C)C)CCCCC2)cc1OC | inactive
11 | CN(C)c1cccc(C(=O)NCC2(N3CCCCC3)CCCCC2)c1 | inactive
12 | COc1ccc(CN(CCCl)CCCl)cc1Cl | inactive
13 | CC(C)c1ccc(NC2CCN(C(=O)OC(C)(C)C)CC2)cc1 | inactive
14 | CCCOc1ccc(C(=O)NCC2(N(C)C)CCCCC2)cc1OC | inactive
15 | CN1CCC(Nc2cccc(F)c2)CC1 | active
16 | O=C(NCC1(N2CCCCC2)CCCCC1)c1cccs1 | inactive
17 | O=C(NCC1(N2CCCCC2)CCCCC1)c1ccc(=O)[nH]c1 | inactive

Row | SMILES | outcome
18 | CC(C)(C)OC(=O)N1CCC(N(C(=O)c2ccccc2)c2ccc(F)cc2)CC1 | inactive
19 | COc1ccc(C(=O)NCC2(N3CCCCC3)CCCCC2)c(OC)c1OC | inactive
20 | COc1ccc(C(=O)NCC2(N3CCCCC3)CCCCC2)cc1 | inactive
21 | CCOC(=O)N1CCC(Nc2ccc(OC)cc2)CC1 | inactive
22 | N#CC1(Nc2ccccc2)CCN(Cc2ccccc2)CC1 | inactive
23 | O=C(OC1CN2CCC1CC2)C1c2ccccc2Oc2ccccc21 (centres undefined) | inactive
24 | O=C(NCC1(N2CCOCC2)CCCCC1)c1cc2ccccc2o1 | inactive
25 | Cc1cc(C)cc(N(C(=O)c2ccccc2)C2CCN(C(=O)OC(C)(C)C)CC2)c1 | inactive
26 | O=C(NCC1(N2CCCCC2)CCCCC1)c1ccc(Cl)nc1 | inactive
27 | COc1ccc(NC2CCN(CCc3ccccc3)CC2)c(OC)c1 | inactive
28 | CCOC(=O)N1CCC(Nc2ccc(F)cc2)CC1 | inactive
29 | O=C(NCC1(N2CCCCC2)CCCCC1)c1ccc(F)cc1 | inactive
30 | CCOc1ccc(C)cc1CN(CCCl)CCCl | inactive
31 | Cc1ccc(OCC(C)C)c(CN(CCCl)CCCl)c1 | inactive
32 | CCOC(=O)N1CCC(Nc2cccc(C)c2)CC1 | inactive
33 | COc1cc(C(=O)NCC2(N(C)C)CCCCC2)ccc1OC(F)F | inactive
34 | Fc1ccccc1NC1CCN(Cc2ccccc2)CC1 | inactive
